Experimental data published in BindingDB's records for patent US9062070 (Merck Sharp & Dohme, 2015).

Molecular target: T1, ATP-sensitive inward rectifier potassium channel 1 (Rattus norvegicus, UniProt P35560)
T1 sequence (P35560 whole entry): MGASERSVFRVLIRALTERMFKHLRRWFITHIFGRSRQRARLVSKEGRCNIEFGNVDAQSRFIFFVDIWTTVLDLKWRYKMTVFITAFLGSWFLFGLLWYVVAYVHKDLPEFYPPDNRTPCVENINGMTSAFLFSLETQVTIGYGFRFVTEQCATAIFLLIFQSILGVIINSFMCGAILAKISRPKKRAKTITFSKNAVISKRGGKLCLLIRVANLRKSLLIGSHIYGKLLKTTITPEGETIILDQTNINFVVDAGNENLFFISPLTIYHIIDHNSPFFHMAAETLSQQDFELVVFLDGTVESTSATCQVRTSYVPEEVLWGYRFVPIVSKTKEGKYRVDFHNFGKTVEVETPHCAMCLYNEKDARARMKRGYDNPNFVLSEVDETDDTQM
Test: Electrophysiology Assay
Details: pH 7.4

C[C@@H]1Cc2cc([C@H]3CN4CCN(C(=O)C5CCc6nc(-n7cnnn7)ccc65)C[C@@H]4CO3)ccc2C(=O)O1 (single isomer, unassigned) [US9062070, 1C]
IC50: 100 nM
